Binding of CDR-mutated scFvs to a peptide of the spike HR2 region

Target peptide (SARS-CoV-2 spike, HR2 region): PDVDLGDISGINAS

Parent: Ab-14, a human scFv built as VH, the linker GGGGSGGGGSGGGGS, VL. Only the CDRs of the light chain vary.
VH: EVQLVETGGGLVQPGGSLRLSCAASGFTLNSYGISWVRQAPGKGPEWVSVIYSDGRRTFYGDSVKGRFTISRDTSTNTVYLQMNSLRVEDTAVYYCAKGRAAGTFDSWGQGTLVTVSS
VL: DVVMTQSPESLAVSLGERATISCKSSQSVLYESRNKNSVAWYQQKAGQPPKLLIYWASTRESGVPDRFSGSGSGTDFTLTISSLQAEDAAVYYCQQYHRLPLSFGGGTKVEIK

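These sequences belong to a second round, designed from the earlier measurements on random variants of the parent. Several design methods are mixed in this list. In AlphaSeq, yeast of one mating type display the scFv and yeast of the other type display the target. Pairs that bind mate more often; barcode pairs of the diploids are counted by sequencing. A regression on co-assayed BCL2-family reference pairs converts the normalised counts of each replicate to an apparent Kd. Mating was done six times.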

Substitutions are numbered in sequence along the VL above, starting at 1 (not Kabat). Variants here have at most six changes. The read-out is the apparent dissociation constant on a log10 scale (nM): the lower, the stronger. The mean shown is taken over the replicates in which the pair was detected. A pair that was not seen in any replicate is written "nd"; this usually means weak binding, but a binder can also be missed. Three control strains display no target. For all light chain designs, 4% of the pairings with them gave a signal, with a median of 2.64 and one signal in twenty below 1.59, so weak values seen in few replicates may be background. Of ten entries with the parent sequence, four were seen in most replicates (averages 0.34 to 2.37), three in one and three in none, so single entries are noisy. The range of this assay differs from that of the first round, and the authors advise against merging the two. The authors averaged sequences with at least three values out of six and counted those with two or fewer as poor binders.

changes,"mean, log10 nM",seen in
S33N/R34Q/W56G/S62Y/Y97K/L102H,1.52,6/6
S25L/S26M/W56H/T59K/S62D,0.72,6/6
S25I/V29F/K36F/W56G,-0.22,6/6
S25V/S26Q/V29W/W56N/T59Q,-0.01,6/6
S25N/Y31G/W56N/T59L/Y97P,0.57,6/6
S25L/L30E/N35L/W56E/S62Y/S103A,0.38,6/6
S25T/S28K/W56A/Y97T/S103F,0.30,6/6
T59G/R99T,nd,0/6
S25Y/S26Y/Q27P/V29Y/W56Q/R99Q,0.87,6/6
K24R/S25M/N35S/K36L/S38P/L100M,1.51,6/6
S25F/V29E/W56E/T59Q,-0.34,6/6
S25L/S26E/V29Q/W56N/S62Q,-0.12,6/6
S26Q/V29W/L30E/W56H/S62D,0.31,6/6
S38N/E61P/H98M,1.80,6/6
S26L/V29W/W56H/S62Q/S103M,1.27,6/6
K24H/Q27P/V29Y/W56N,nd,0/6
S25V/S26Y/V29D/W56N,0.16,6/6
S25M/S26P/W56N,-0.30,6/6
Y31A/Y97P,nd,0/6
V29L/R34D,1.27,6/6
S33K/R34Q/N35H/K36M,2.00,5/6
S25L/V29Y/W56N/T59K,-0.03,6/6
S25M/Q27H/L30P/Y31Q/W56H/P101L,-0.72,1/6
S25V/S26L/L30V/S33G/W56E/S62D,-0.19,6/6
S26G/S28G/K36Q/W56G/R60E,1.44,6/6
S25L/W56H/S58N,0.20,6/6
Q27I/R34G/W56E,0.38,6/6
S25F/N35T/S38G/W56D,0.31,6/6
W56A/R99T,1.00,6/6
S25L/S26Q/V29E/K36V/W56D/T59K,-0.17,6/6
S25F/S38A/W56D/Q96M/R99W,1.06,6/6
Y31H/K36D/W56G,0.21,6/6
S25L/V29M/S38A/W56N/T59Q,-0.42,6/6
K24H/Q27W/L30D/Y31D/K36D/W56D,1.29,6/6
S25Y/S26Y/Q27P/V29Y/Y31G/W56Q,0.01,6/6
K24H/Q27P/L30E/W56N/T59C,0.50,6/6
S25Q/Q27L/Y31Q/W56D,0.07,6/6
S25I/Q27P,-0.07,6/6
S26G/K36T/S58V/T59E/Q96T,1.01,5/6
L30P/Q96S/P101I,nd,0/6
S25Y/S26Y/Q27P/V29G/W56Q/R99L,0.03,6/6
S25F/S28L/N35T/W56N,0.34,6/6
S26Q/W56N/A57E,0.34,6/6
S28Q/Y31G/K36M/W56N/S62A,-0.06,6/6
V29S/Y31Q/S58T/H98Q/S103F,2.69,1/6
Y31G/S62Y/Y97K,nd,0/6
S26P/V29Q/W56N,-0.05,6/6
Y31F/S33D/W56D,0.16,6/6
L30Y/E32D/W56H/E61P,1.23,6/6
Y31Q/S33P/W56D,0.23,6/6
S25M/V29N,0.66,6/6
L30T/W56S/T59K,1.43,6/6
W56D/S62E/L102W,1.57,6/6
S25L/N35I/W56H,0.28,6/6
S25L/L30W/W56N/E61M,0.21,6/6
Q27E/S33G/R34Y/R99G,2.48,6/6

Values reported by Li et al. 2023, doi:10.1038/s41467-023-39022-2 (FLAb copy).